Data set [1] concerns P. falciparum PI4K cKD line.
A further data set in a line: in vitro. Particulars: human, Caco-2.

Values joined by “and” are separate entries in the source; they are usually repeats but may differ in a detail not shown here. Equal values may be shown once.

On to `Cn1ccc(-c2ccc3nccc(-c4cccc(S(C)(=O)=O)c4)c3n2)cc1=O` [Compound 19, 1-Methyl-4-[8-(3-methylsulfonylphenyl)-1,5-naphthyridin-2-yl]pyridin-2-one], for which the fold shift in data set [1] was 9.3 and 8.0 and 7.7. In addition, the efflux ratio in the data set “in vitro” came out at 2.3.

`CS(=O)(=O)c1cccc(-c2ccnc3ccc(N4CCC(O)CC4)nc23)c1` [Compound 21, 1-[8-(3-Methylsulfonylphenyl)-1,5-naphthyridin-2-yl]piperidin-4-ol]: the fold shift in data set [1] is 6.0 and 6.6 and 5.5. Moreover, the “fold decrease in IC50 under the knockdown condition” value in data set [1] (no aTc vs aTc) is reported as 6.0 fold. For the same compound, the efflux ratio in “in vitro” was found to be 1.2.

Source of the values: PMC12557380, “Optimization of 2,8-Diaryl-1,5-naphthyridines as Plasmodium falciparum Phosphatidylinositol 4‑Kinase Inhibitors with Improved ADME Profiles and In Vivo Efficacy” (Journal of Medicinal Chemistry, 2025).
